Values of other authors in paper PMC6282790, “Incorporating physiologically relevant mobile phases in micellar liquid chromatography for the prediction of human intestinal absorption” (Biomedical Chromatography, 2018).

Set-up: method as in https://pubchem.ncbi.nlm.nih.gov/, December 2014; unit not given beside the values
Conditions: literature values; ref https://pubchem.ncbi.nlm.nih.gov/, December 2014

In the case of nicotinic acid, the PSA is listed as 50.2.
